These results are taken from article PMC3799459.

Substrate in this data set: C[S+](CC[C@H](N)C(=O)[O-])C[C@H]1O[C@@H](n2cnc3c(N)ncnc32)[C@H](O)[C@@H]1O
The data set can be described thus: Km determination of DNMT1 substrates. It counts as biochemical, human. The settings on record: other: SAM 0.25-20 µM, 1.0 µM hemimethylated Dup_1.

B1: DNMT1 (Homo sapiens) (protein)
chain: MPARTAPARVPTLAVPAISLPDDVRRRLKDLERDSLTEKECVKEKLNLLHEFLQTEIKNQLCDLETKLRKEELSEEGYLAKVKSLLNKDLSLENGAHAYNREVNGRLENGNQARSEARRVGMADANSPPKPLSKPRTPRRSKSDGEAKPEPSPSPRITRKSTRQTTITSHFAKGPAKRKPQEESERAKSDESIKEEDKDQDEKRRRVTSRERVARPLPAEEPERAKSGTRTEKEEERDEKEEKRLRSQTKEPTPKQKLKEEPDREARAGVQADEDEDGDEKDEKKHRSQPKDLAAKRRPEEKEPEKVNPQISDEKDEDEKEEKRRKTTPKEPTEKKMARAKTVMNSKTHPPKCIQCGQYLDDPDLKYGQHPPDAVDEPQMLTNEKLSIFDANESGFESYEALPQHKLTCFSVYCKHGHLCPIDTGLIEKNIELFFSGSAKPIYDDDPSLEGGVNGKNLGPINEWWITGFDGGEKALIGFSTSFAEYILMDPSPEYAPIFGLMQEKIYISKIVVEFLQSNSDSTYEDLINKIETTVPPSGLNLNRFTEDSLLRHAQFVVEQVESYDEAGDSDEQPIFLTPCMRDLIKLAGVTLGQRRAQARRQTIRHSTREKDRGPTKATTTKLVYQIFDTFFAEQIEKDDREDKENAFKRRRCGVCEVCQQPECGKCKACKDMVKFGGSGRSKQACQERRCPNMAMKEADDDEEVDDNIPEMPSPKKMHQGKKKKQNKNRISWVGEAVKTDGKKSYYKKVCIDAETLEVGDCVSVIPDDSSKPLYLARVTALWEDSSNGQMFHAHWFCAGTDTVLGATSDPLELFLVDECEDMQLSYIHSKVKVIYKAPSENWAMEGGMDPESLLEGDDGKTYFYQLWYDQDYARFESPPKTQPTEDNKFKFCVSCARLAEMRQKEIPRVLEQLEDLDSRVLYYSATKNGILYRVGDGVYLPPEAFTFNIKLSSPVKRPRKEPVDEDLYPEHYRKYSDYIKGSNLDAPEPYRIGRIKEIFCPKKSNGRPNETDIKIRVNKFYRPENTHKSTPASYHADINLLYWSDEEAVVDFKAVQGRCTVEYGEDLPECVQVYSMGGPNRFYFLEAYNAKSKSFEDPPNHARSPGNKGKGKGKGKGKPKSQACEPSEPEIEIKLPKLRTLDVFSGCGGLSEGFHQAGISDTLWAIEMWDPAAQAFRLNNPGSTVFTEDCNILLKLVMAGETTNSRGQRLPQKGDVEMLCGGPPCQGFSGMNRFNSRTYSKFKNSLVVSFLSYCDYYRPRFFLLENVRNFVSFKRSMVLKLTLRCLVRMGYQCTFGVLQAGQYGVAQTRRRAIILAAAPGEKLPLFPEPLHVFAPRACQLSVVVDDKKFVSNITRLSSGPFRTITVRDTMSDLPEVRNGASALEISYNGEPQSWFQRQLRGAQYQPILRDHICKDMSALVAARMRHIPLAPGSDWRDLPNIEVRLSDGTMARKLRYTHHDRKNGRSSSGALRGVCSCVEAGKACDPAARQFNTLIPWCLPHTGNRHNHWAGLYGRLEWDGFFSTTVTNPEPMGKQGRVLHPEQHRVVSVRECARSQGFPDTYRLFGNILDKHRQVGNAVPPPLAKAIGLEIKLCMLAKARESASAKIKEEEAAKD
What is called Km is the concentration of substrate that gives half-maximal velocity. With B1, the Km worked out at 4.4 ± 0.5 µM.
